AlphaSeq binding of Ab-14 light chain variants to a spike HR2 peptide

Source: Engelhart et al. 2022 (doi:10.1038/s41597-022-01779-4), MIT Lincoln Laboratory and A-Alpha Bio; data file from the FLAb repository.

Target: peptide PDVDLGDISGINAS, taken from heptad repeat 2 (HR2) of SARS-CoV-2 spike.

Parent scFv Ab-14: VH joined to VL by three GGGGS repeats. Changes lie in the light chain CDRs alone.
VH: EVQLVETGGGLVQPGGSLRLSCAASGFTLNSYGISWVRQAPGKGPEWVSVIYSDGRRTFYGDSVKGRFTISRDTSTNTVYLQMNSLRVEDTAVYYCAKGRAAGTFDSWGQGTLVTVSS
VL: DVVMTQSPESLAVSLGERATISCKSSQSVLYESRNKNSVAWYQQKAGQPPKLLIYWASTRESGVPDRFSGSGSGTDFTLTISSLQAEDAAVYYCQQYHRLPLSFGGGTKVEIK

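Library AAYL50 holds single substitutions and randomly drawn double and triple substitutions in the CDRs. The scFvs were displayed on barcoded MATa yeast, the peptide on MATalpha yeast. Binding brings cells together so that they mate, and sequencing counts the barcode pairs among the diploids. The ratio of observed to expected reads was calibrated, replicate by replicate, on BCL2-family standards whose Kd was known from biolayer interferometry. The assay was run in three technical replicates.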

Positions count from residue 1 of the parent VL; L30S puts S in place of L.
Numbers give log10(Kd / nM), so 0 is 1 nM and 3 is 1 µM. Smaller is tighter.
The mean shown is taken over the replicates in which the pair was detected.
"ND" marks a missing value. The strain was present, yet no cells mated with the target were sequenced in that replicate, which points to weak or no binding.
Background: pairings of library AAYL50 with three empty control strains gave a value in 18% of cases (median 4.19, 5th percentile 2.99). Values in that range, when seen in few replicates, are hard to tell from nonspecific mating. Also given: how often the same scFv was detected with the empty control strains, with their mean in brackets.

| changes | replicates, log10 nM | mean, log10 nM | control signals |
|---|---|---|---|
| L30S+H98C | 1.68 1.77 1.90 | 1.78 | 2/9 (3.63) |
| Q27E+R34L+N35P | 0.80 0.84 0.79 | 0.81 | 3/9 (4.57) |
| S26M+N37W+T59P | 5.65 ND ND | 5.65 | 0/9 |
| S58L+S62D+L100Y | ND ND ND | ND | 0/9 |
| K24D+S25H+R60Y | ND ND 5.94 | 5.94 | 1/9 (5.01) |
| S28E+E32H+K36V | 0.56 0.80 1.20 | 0.85 | 1/9 (2.47) |
| S38K+P101I | ND ND ND | ND | 1/9 (3.25) |
| L30A+N35Y+K36C | ND ND 3.93 | 3.93 | 0/9 |
| S58R+Y97D+L100N | ND 4.20 ND | 4.20 | 2/9 (4.61) |
| W56Q+Q95C+Q96D | 2.14 1.56 1.37 | 1.69 | 0/9 |
| R34Q+W56C+R60S | 2.61 3.38 3.56 | 3.19 | 1/9 (4.72) |
| K36N+T59M+S103H | 1.05 1.50 1.20 | 1.25 | 0/9 |
| S33M+Q96H | ND 3.13 5.15 | 4.14 | 3/9 (4.89) |
| L30P+S62C+Y97W | 1.41 1.54 1.49 | 1.48 | 5/9 (4.68) |
| L30P+W56K | -0.21 0.13 0.15 | 0.02 | 7/9 (5.41) |
| Q96T+R99Y | 1.27 1.14 1.25 | 1.22 | 2/9 (3.65) |
| K24F+K36P+V39Y | ND ND ND | ND | 3/9 (3.89) |
| Y31K+N35H+S103C | 3.62 2.49 3.50 | 3.20 | 1/9 (4.73) |
| S25R+S26G+Q96S | 2.60 3.58 2.79 | 2.99 | 0/9 |
| Q27E+W56I+A57Y | ND ND ND | ND | 1/9 (3.57) |
| Y97M | 1.31 1.42 1.32 | 1.35 | 2/9 (3.72) |
| N35D | 0.97 0.79 0.75 | 0.84 | 6/9 (3.96) |
| N35G+Q96R+R99H | ND ND ND | ND | 3/9 (4.11) |
| R34W+E61N | 0.97 1.13 1.14 | 1.08 | 4/9 (4.10) |
| K24T+S62L+L100Q | ND 4.21 ND | 4.21 | 2/9 (3.89) |
| K24F+Q27E+A57T | 1.34 1.52 1.47 | 1.44 | 3/9 (4.34) |
| Y31I+N35Y+T59K | ND ND ND | ND | 1/9 (3.66) |
| Q95V+L100A+S103G | ND 3.73 ND | 3.73 | 3/9 (4.00) |
| Q27K+V29G+Q96C | 1.58 1.74 1.65 | 1.66 | 2/9 (3.84) |
| S28M+W56I+L100N | ND ND ND | ND | 1/9 (1.44) |
| V29K+K36R+Q96K | 3.09 4.53 3.12 | 3.58 | 1/9 (4.55) |
| N37Y+Y97S+H98W | ND ND ND | ND | 1/9 (3.91) |
| S26D+V29M+H98W | 0.05 0.50 0.34 | 0.30 | 1/9 (4.88) |
| S33T+W56T+E61K | 2.37 2.53 2.87 | 2.59 | 3/9 (4.63) |
| S33F+R34D+Q96V | 2.12 1.58 1.79 | 1.83 | 0/9 |
| S25T+R34L+S62V | 0.09 0.48 0.23 | 0.27 | 3/9 (4.94) |
| K36G+L100W+L102S | 5.33 ND ND | 5.33 | 1/9 (4.34) |
| R34F+E61D+Y97P | ND ND ND | ND | 1/9 (3.06) |
| S26W+Q27T+K36S | 1.52 1.87 1.79 | 1.73 | 0/9 |
| V39H+Y97S+S103Q | ND 4.25 ND | 4.25 | 4/9 (4.60) |
| N37C+V39I+T59F | 1.52 2.79 ND | 2.15 | 0/9 |
| Y31M+L100Q+P101M | 5.67 ND 4.91 | 5.29 | 0/9 |
| W56V+L100Q | ND ND ND | ND | 0/9 |
| K24L+S26A | ND 3.82 ND | 3.82 | 3/9 (4.17) |

For reference, 2 entries of the list once more:

changes	replicates, log10 nM	mean, log10 nM	control signals
Q96T+R99Y	1.27 1.14 1.25	1.22	2/9 (3.65)
N35G+Q96R+R99H	ND ND ND	ND	3/9 (4.11)